Literature values, collected in patent US6994981B2, “Modulators of paraptosis and related methods” (The Buck Institute, priority 2002, dated 2006).

The chains behind the UniProt entries cited, without tags or fusion partners.
UniProt P14600, whole entry: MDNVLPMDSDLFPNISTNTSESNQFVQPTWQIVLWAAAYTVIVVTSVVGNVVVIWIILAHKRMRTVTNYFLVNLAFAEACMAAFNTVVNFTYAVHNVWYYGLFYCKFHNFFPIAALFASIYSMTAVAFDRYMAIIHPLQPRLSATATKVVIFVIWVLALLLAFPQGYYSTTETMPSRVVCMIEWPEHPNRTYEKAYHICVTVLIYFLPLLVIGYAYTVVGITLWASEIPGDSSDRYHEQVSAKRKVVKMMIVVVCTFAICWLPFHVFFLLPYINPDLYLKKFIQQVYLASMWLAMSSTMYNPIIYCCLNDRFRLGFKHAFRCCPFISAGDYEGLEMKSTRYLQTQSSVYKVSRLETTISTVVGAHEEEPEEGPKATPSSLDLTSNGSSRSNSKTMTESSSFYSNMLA

Key:
[1] = target: neurokinin-1 receptor (NK1R) (Rattus norvegicus, UniProt P14600); conditions: cited from earlier work
paraptosis = conditions: cited from earlier work

Substance | affinity for NK1R [1] | effect of caspase inhibitors on paraptosis (paraptosis)
SP: eleven amino acid neurotransmitter of the tachykinin family, ligand of NK1R | nanomolar affinity | –
xiap: X-chromosome-linked inhibitor of apoptosis | – | lack of effect
